Values of other authors in patent US20090326196A1 (Trustees of Tufts College, priority 2006, published 2009).

System: dipeptidyl peptidase IV (DPP IV, EC 3.4.14.5)
Details: cited from earlier work

**Q.** Which cleaved bond does the source give for HAEGTFTSDVSSYLEGQAAKEFIAWLVKGR here?
**A.** Ala8-Glu9
